Biological target: LXR β LBD protein (Homo sapiens (Human), UniProt P55055)
Assay: LXR β radioligand binding assay (SPA, [3H]T0901317 competition)
Conditions: competition with 15 nM [3H]T0901317, LXRβ LBD

Protein sequences, listed by entry. Tags and fused reporters are not part of them. Residues count along the entry.
UniProt P55055, 222-460: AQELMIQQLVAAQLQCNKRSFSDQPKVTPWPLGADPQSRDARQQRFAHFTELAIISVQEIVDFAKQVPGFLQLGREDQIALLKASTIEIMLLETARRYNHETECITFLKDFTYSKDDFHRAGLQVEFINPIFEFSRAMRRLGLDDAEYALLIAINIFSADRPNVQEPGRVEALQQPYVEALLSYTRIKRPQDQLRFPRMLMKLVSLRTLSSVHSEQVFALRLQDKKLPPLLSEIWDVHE

Row | SMILES | Ki
1 | CC(O)c1cnc(N2CCn3c(nc4cc(CO)c(S(C)(=O)=O)cc43)[C@H]2C(C)C)nc1C(F)(F)F (single isomer, unassigned) [Compound E8b, 1-(2-(8-(hydroxymethyl)-1-isopropyl-7-(methylsulfonyl)-3,4-dihydrobenzo[4,5]imidazo[1,2-a]pyrazin-2(1H)-yl)-4-(trifluoromethyl)pyrimidin-5-yl)ethanol] | 13 nM
2 | CC(O)c1cnc(N2CCn3c(nc4cc(CO)c(S(C)(=O)=O)cc43)[C@@H]2C(C)C)nc1C(F)(F)F (single isomer, unassigned) [Compound E8a, 1-(2-(8-(hydroxymethyl)-1-isopropyl-7-(methylsulfonyl)-3,4-dihydrobenzo[4,5]imidazo[1,2-a]pyrazin-2(1H)-yl)-4-(trifluoromethyl)pyrimidin-5-yl)ethanol] | 1650 nM

Other lines, results leading:

Row | Ki | SMILES
3 | 1330 nM | CC(O)c1cnc(N2CCn3c(nc4cc(CO)c(S(C)(=O)=O)cc43)[C@@H]2C(C)C)nc1C(F)(F)F (single isomer, unassigned) [Compound E8d, 1-(2-(8-(hydroxymethyl)-1-isopropyl-7-(methylsulfonyl)-3,4-dihydrobenzo[4,5]imidazo[1,2-a]pyrazin-2(1H)-yl)-4-(trifluoromethyl)pyrimidin-5-yl)ethanol]
4 | 7 nM | CCC(O)c1cnc(N2CCn3c(nc4cc(CO)c(S(C)(=O)=O)cc43)[C@H]2C(C)C)nc1C(F)(F)F (single isomer, unassigned) [Compound E10c, 1-(2-(8-(hydroxymethyl)-1-isopropyl-7-(methylsulfonyl)-3,4-dihydrobenzo[4,5]imidazo[1,2-a]pyrazin-2(1H)-yl)-4-(trifluoromethyl)pyrimidin-5-yl)propan-1-ol]
5 | 9 nM | CC(O)c1cnc(N2CCn3c(nc4cc(CO)c(S(C)(=O)=O)cc43)[C@H]2C(C)C)nc1C(F)(F)F (single isomer, unassigned) [Compound E8c, 1-(2-(8-(hydroxymethyl)-1-isopropyl-7-(methylsulfonyl)-3,4-dihydrobenzo[4,5]imidazo[1,2-a]pyrazin-2(1H)-yl)-4-(trifluoromethyl)pyrimidin-5-yl)ethanol]

— patent US9073931B2, “Liver X receptor modulators” (Vitae Pharmaceuticals, Inc., priority 2012, dated 2015)
